# Article PMC5962729, “Yinchenhao Decoction Ameliorates Alpha-Naphthylisothiocyanate Induced Intrahepatic Cholestasis in Rats by Regulating Phase II Metabolic Enzymes and Transporters” (Frontiers in Pharmacology, 2018)
# Values joined by “and” are separate entries in the source; they are usually repeats but may differ in a detail not shown here. Equal entries are not always repeated.
# Assays:
# Format in all cases: in vivo
# Conditions in all cases: ANIT 50 mg/kg i.g.
# NTCP = test: Expression level of NTCP in rat liver by UHPLC-MS/MS
# OCT1 = test: Expression level of OCT1 in rat liver by UHPLC-MS/MS
# Protocol: (§1) Male Sprague Dawley rats (230 ± 20 g, 6–8 weeks of age) were purchased from B&K Laboratory Animal, Corp. Ltd. (Shanghai, China) and fed in the Laboratory Animal Center of Shanghai University of Traditional Chinese Medicine. All rats were allowed to acclimatize for 3 days before experimentation. The rats were randomly divided into six groups (n = 5 for each group). […] Moreover, groups 1 and 2 were intragastrically treated with physiological saline (0.9%) at a dose of 1 mL/100 g. […] At the end of the experiment, all rats were euthanized by CO2 inhalation. The serum samples were stored at -70°C until analysis, and liver samples were isolated and stored at -70°C for further analysis, whereas the central part of the right large lobe of the liver was used for histological examination.
# (§2) Biotransformation of xenobiotics and endogenous compounds is a crucial step in the absorption and elimination of potentially harmful substances from the human body, a process that could be affected by the levels of pharmacokinetic enzymes and transporter proteins. […]
# (§3) Total membrane protein was isolated (in triplicate) from liver tissue according to the Native Membrane Protein Extraction Kit protocol. Subsequently, protein concentrations were determined by applying the BCA Protein Assay Kit. […]
# BSEP = test: Expression level of BSEP in rat liver by UHPLC-MS/MS
# Protocol: as §1, §2, §3
# MDR1 = test: Expression level of MDR1 in rat liver by UHPLC-MS/MS
# Protocol: as §1, §2, §3
# MRP2 = test: Expression level of MRP2 in rat liver by UHPLC-MS/MS
# OATP1A4 = test: Expression level of OATP1A4 in rat liver by UHPLC-MS/MS
# OATP1A2 = test: Expression level of OATP1A2 in rat liver by UHPLC-MS/MS
# UGT1A1 = test: Expression level of UGT1A1 in rat liver by UHPLC-MS/MS
# Protocol: as §1, §2, §3
# OATP1A1 = test: Expression level of OATP1A1 in rat liver by UHPLC-MS/MS
structure (smiles),measurement,setting,value
"S=C=Nc1cccc2ccccc12 [ANIT, alpha-naphthylisothiocyanate]","NTCP expression level decreased by, model group compared with control group",NTCP,76.7%
same,"OCT1 expression level decreased by, model group compared with control group",OCT1,52.0% and 76.7%
same,"BSEP expression level reduced by, model group compared with control group",BSEP,37.1%
same,"MDR1 expression level decreased by, model group compared with control group",MDR1,79.1%
same,"MRP2 expression level reduced by, model group compared with control group",MRP2,57.0%
same,"OATP1A4 expression level decreased by, model group compared with control group",OATP1A4,75.1%
same,"OATP1A2 expression level decreased by, model group compared with control group",OATP1A2,44.4%
same,"UGT1A1 expression level decreased by, model group compared with control group",UGT1A1,68.1%
same,"OATP1A1 expression level decreased by, model group compared with control group",OATP1A1,40.8%
